# Antibody variant affinities, Ab-14 heavy chain, assay B

From the AlphaSeq antibody data of Li et al. 2023 (doi:10.1038/s41467-023-39022-2), copy in the FLAb collection.

Target: peptide PDVDLGDISGINAS, taken from heptad repeat 2 (HR2) of SARS-CoV-2 spike.

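The starting antibody came from a phage panning campaign against this peptide. These sequences belong to a second round, designed from the earlier measurements on random variants of the parent. Group labels follow the data file (En: ensemble of fine-tuned language models; HC: hill climbing; Gen: genetic algorithm; Gibbs: Gibbs sampling; a sequence that several methods proposed may carry one label only). The assay is AlphaSeq: two haploid yeast populations carry antibody and antigen on their surface. Binding brings cells together so that they mate, and sequencing counts the barcode pairs among the diploids. Scores were corrected for input abundance and mapped to Kd with protein pairs of known affinity run in the same pool. Each pool was mated in six replicate cultures.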

Parent: Ab-14, a human scFv built as VH, a 15-residue (Gly4Ser)3 linker, VL. Only the CDRs of the heavy chain vary.
VH: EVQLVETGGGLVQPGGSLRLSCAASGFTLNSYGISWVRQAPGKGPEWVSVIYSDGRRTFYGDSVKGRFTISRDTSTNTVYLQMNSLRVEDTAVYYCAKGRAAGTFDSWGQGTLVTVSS
VL: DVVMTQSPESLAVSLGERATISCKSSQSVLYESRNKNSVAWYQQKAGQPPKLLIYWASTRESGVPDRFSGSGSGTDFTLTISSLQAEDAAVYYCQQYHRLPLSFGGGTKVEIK

Variants are written as CDR1, CDR2 and CDR3 of the heavy chain (limits as in the source). Parent: GFTLNSYGIS, VIYSDGRRTFYGDSVK, GRAAGTFDS.
This list holds designs with more than six substitutions.
Each Kd is an estimate from the mating assay, the geometric mean of the replicates in which the pair was seen; lower is stronger.
Where no diploid with the target was found in any replicate, the entry reads "nd": below detection, most likely a poor binder, though not proof of it.
The parent sequence was in this pool as ten entries: three were never detected, three once, and four in most replicates, with averages from 2.2 nM to 240 nM.
In the paper, a design with two or fewer of six values counts as a poor binder.
Nonspecific signal, from three strains lacking the peptide, appeared in 1% of pairings of all heavy chain designs, centred on 120 nM (5% of these signals below 7.0 nM); values are not corrected for it.
The range of this assay differs from that of the first round, and the authors advise against merging the two.

With GFDLNEYGIS / VIYADGQRTAYSDSVK / GNEAGTFDV [En_Gen] the result was 520 pM (6 of 6 replicates). The variant GFDLNEYGIS / VIYADGMRTAYADSVK / GEVAGTFDA [En_Gen] gave 830 pM (6 of 6 replicates). For GFDLDEYGIS / VIYADGQRTAYADSVK / GNVAGTFDI [En_Gen], the assay gave 440 pM (6 of 6 replicates). With GFDLNEYGIS / VIYADGLRTAYTDSVK / GEFAGTFDV [En_HC] the result was 310 pM (6 of 6 replicates). The variant GFDLDEYGIS / VIYADGKRTAYADDVK / GGNAGTFDV [En_Gen] gave 3.7 nM (5 of 6 replicates). The variant GADLNEYGIS / VIYADGSRVEYENSFK / GWVAGTFDS [En_Gibbs] gave 170 nM (2 of 6 replicates). With GFDLEEYGIS / VIYADGLRSYYADNFK / GWNSGTIAV [En_Gibbs] the result was nd (0 of 6 replicates). For GFDLNEYGIS / VIYADGKRTVYADSVK / GNVAGTFDV [En_Gen], the assay gave 130 pM (6 of 6 replicates).

The variant GFDLNEYGIS / VIYADGVRTAYANSVK / GNNAGTFDV [En_Gen] gave 150 pM (6 of 6 replicates). The variant GFDLNEYGIS / VIYADGRRTAYQDSVK / GEIAGTFDQ [En_HC] showed 520 pM (6 of 6 replicates). The variant GFDLQEYGIS / VIYADGKRTAYIQKVK / GYIVGGQFD [En_Gibbs] gave nd (0 of 6 replicates). For GFDLQEYGVS / VIYADGERKAYADKVK / GTHGGTRDI [En_Gibbs], the assay gave nd (0 of 6 replicates). The variant GFDLEEYGIS / VIYADGVRTAYADSVK / GNVAGTFDL [En_Gen] showed 490 pM (6 of 6 replicates). The variant GFDLDEYGIS / VIYADGIRTAYADSVK / GNNAGTFDV [En_Gen] showed 550 pM (6 of 6 replicates). With GFNLDEYGIS / VIYADGRRTFYADSVK / GNVAGTFVQ [En_HC] the result was 410 pM (6 of 6 replicates). With GFDLNEYGIS / VIYADGRRTFYADSVK / GEVAGTFIQ [En_HC] the result was 900 pM (6 of 6 replicates).

The variant GFDLDEYGIS / VIYADGRRTAYADDVK / GEVAGTFDV [En_Gen] showed 290 pM (6 of 6 replicates). The variant GFDLNEYGIS / VIYADGRRTFYADSVK / GEIAGTFDN [En_HC] showed 270 pM (6 of 6 replicates). For GFDLDEYGIS / VIYADGMRTAYTDSVK / GQNAGTFDV [En_Gen], the assay gave 12 nM (6 of 6 replicates). For GFDLDEYGIS / VIYADGMRTAYSDSVK / GNNAGTFDM [En_Gen], the assay gave 410 pM (6 of 6 replicates). The variant GQGIEEYGIS / VIYADGQRNAAADEVK / GENAGTFDI [En_Gibbs] gave nd (0 of 6 replicates). The variant GFDLNEYGIS / VIYADGRRTAYSDSVK / GENAGTFDL [En_Gen] showed 620 pM (6 of 6 replicates). With GFDLDEYGIS / VIYADGSRTAYADNVK / GENAGTFDV [En_Gen] the result was 1.6 nM (6 of 6 replicates). With GFDLDEYGIS / VIYADGMRTAYADSVK / GQVAGTFDQ [En_Gen] the result was 580 pM (6 of 6 replicates).

For GQNLDEYGIS / VIYADGQRVAYDDPVK / GEQGGTVMV [En_Gibbs], the assay gave nd (0 of 6 replicates). For GFDLNEYGIS / VIYADGRRTAYADSVK / GNVAGTFDL [En_Gen], the assay gave 180 pM (6 of 6 replicates). The variant GFDLNEYGIS / VIYADGKRSAYADSVK / GNNAGTFDV [En_Gen] gave 350 pM (6 of 6 replicates). The variant GFDLDEYGIS / VIYADGKRTAYSDSVK / GNTAGTFDV [En_Gen] showed nd (0 of 6 replicates). The variant GFNLNEYGIS / VIYADGMRTFYADSVK / GQIAGTFIV [En_HC] showed 7.3 nM (5 of 6 replicates). For GFSLNEYGIS / VIYADGKRQVYANKVK / GNQTGTFDI [En_Gibbs], the assay gave 48 nM (6 of 6 replicates). With GFDLNEYGIS / VIYADGRRTFYVDSVK / GVNAGTFDT [En_HC] the result was 380 pM (6 of 6 replicates). The variant GFDLDEYGIS / VIYADGRRTFYADSVK / GELAGTFFL [En_HC] showed 2.2 nM (6 of 6 replicates).

With GFDLNEYGIS / VIYADGVRTAYADSVK / GGNAGTFDT [En_Gen] the result was 23 pM (6 of 6 replicates). With GFDLNEYGIS / VIYADGKRTAYADDVK / GANAGTFDV [En_Gen] the result was 170 pM (6 of 6 replicates). The variant GFDLDEYGIS / VIYADGTRRYYADNVK / GDYVYVNST [En_Gibbs] gave 3.0 µM (1 of 6 replicates). The variant GFEIQEYGIS / VIYADGRRQAYAESVK / GTLGGTFST [En_Gibbs] gave 1.3 nM (6 of 6 replicates). The variant GFDLNEYGIS / VIYADGRRTAYADNVK / GENAGTFDI [En_HC] showed 560 pM (6 of 6 replicates). The variant GFDLNEYGIS / VIYADGMRTFYDDSVK / GQLAGTFDQ [En_HC] gave 490 pM (6 of 6 replicates). The variant GFDLNEYGIS / VIYADGIRTFYADSVK / GNQAGTFDV [En_HC] gave 120 pM (6 of 6 replicates). For GFQLDEYGIS / VIYADGLRQYYAQKVK / GYNSFDLND [En_Gibbs], the assay gave nd (0 of 6 replicates).

With GFGLDEYGIS / VIYADGRRTFYADSVK / GENAGTFDV [En_HC] the result was 280 pM (6 of 6 replicates). For GDKLEAYGIS / VIYADGQRAAYVDKVK / GQTGGMFDQ [En_Gibbs], the assay gave nd (0 of 6 replicates). The variant GFDLEEYGIS / VIYADGRRTAYADSVK / GNVAGTFDQ [En_Gen] showed 480 pM (6 of 6 replicates). The variant GFDLNEYGIS / VIYADGKRTYYADDVK / GNQAGTFDV [En_Gen] gave 380 pM (6 of 6 replicates). The variant GQDINEYGIS / VIYADGMRQAYSQNVK / GNINQFDAV [En_Gibbs] showed nd (0 of 6 replicates). With GFDLNEYGIS / VIYADGVRTAYTDSVK / GSNAGTFDV [En_Gen] the result was 310 pM (6 of 6 replicates). The variant GEDLDEYGIS / VIYADGRRVVYQDQVK / GELAGTFYQ [En_Gibbs] gave nd (0 of 6 replicates). For GFDFQEYGIS / VIYADGLRTNAADNVK / GNIGATFDD [En_Gibbs], the assay gave 22 nM (1 of 6 replicates).

With GFDLDEYGIS / VIYADGMRTAYVDSVK / GENAGTFDV [En_Gen] the result was 210 pM (6 of 6 replicates).

For reference, 7 entries of the list once more:

{"CDR-H1": "GFDLNEYGIS", "CDR-H2": "VIYADGKRTAYADDVK", "CDR-H3": "GANAGTFDV", "group": "En_Gen", "Kd": "170 pM", "seen in": "6/6"}
{"CDR-H1": "GFDLNEYGIS", "CDR-H2": "VIYADGRRTAYQDSVK", "CDR-H3": "GEIAGTFDQ", "group": "En_HC", "Kd": "520 pM", "seen in": "6/6"}
{"CDR-H1": "GFDLNEYGIS", "CDR-H2": "VIYADGQRTAYSDSVK", "CDR-H3": "GNEAGTFDV", "group": "En_Gen", "Kd": "520 pM", "seen in": "6/6"}
{"CDR-H1": "GFDLNEYGIS", "CDR-H2": "VIYADGVRTAYANSVK", "CDR-H3": "GNNAGTFDV", "group": "En_Gen", "Kd": "150 pM", "seen in": "6/6"}
{"CDR-H1": "GFDLDEYGIS", "CDR-H2": "VIYADGMRTAYVDSVK", "CDR-H3": "GENAGTFDV", "group": "En_Gen", "Kd": "210 pM", "seen in": "6/6"}
{"CDR-H1": "GFDLQEYGIS", "CDR-H2": "VIYADGKRTAYIQKVK", "CDR-H3": "GYIVGGQFD", "group": "En_Gibbs", "Kd": "nd", "seen in": "0/6"}
{"CDR-H1": "GFNLNEYGIS", "CDR-H2": "VIYADGMRTFYADSVK", "CDR-H3": "GQIAGTFIV", "group": "En_HC", "Kd": "7.3 nM", "seen in": "5/6"}